Values of other authors, collected in article PMC7559231, “Drug-induced cholestasis assay in primary hepatocytes” (MethodsX, 2020).

System: sandwich-cultured human hepatocytes
Conditions: cited from earlier work

| Compound | DICI 24 h Mean | DICI 48 h Mean (50 µM test compound, 48 h exposure, SCHH, ref [6],[7]) |
| --- | --- | --- |
| O=C(O)Cc1ccccc1Nc1c(Cl)cccc1Cl [Diclofenac, diclofenac] | 1.18 | – |
| CCc1ccc(CCOc2ccc(CC3SC(=O)NC3=O)cc2)nc1 (centres unmarked) [Pioglitazone, pioglitazone] | – | 1.06 |
